{
  "source": "PubChem BioAssay AID594",
  "about": "(National Center for Advancing Translational Sciences (NCATS), 2007)",
  "note": "The list shows a part of the results, in another mix than the full data. Some of these compounds have results that are not shown, active ones among them. Calls of active or inactive are those of the source. No stated cut-off is given here; in the data, active means max dye-equivalent concentration above about 11 nM; inconclusive means between about 1.1 nM and that limit; inactive means weaker than that.",
  "data": [
    {"assay": "qHTS Assay for Spectroscopic Profiling in Rhodamine Spectral Region", "conditions": "Rhodamine-region fluorescence, 547/598 nm, Tris buffer", "excerpt": "NIH Molecular Libraries Screening Centers Network [MLSCN] NIH Chemical Genomics Center [NCGC] […] Occasionally, the artifactual effect may originate from the compound#s own spectral or other biophysical properties which generally tend to track its assay concentration. Pre-screening/profiling the library with respect to the compounds# spectral properties should help one exclude false positives early on. While the most informative fluorescent profiling data set is obtained by performing a full excitation and emission scan of each well by using a monochromator-based plate reader, such an approach is practical only on a very limited scale as scanning each well requires long time. An alternative approach, applied here, is to perform plate reader scans using selected excitation and emission wavelength pairs to generate a multidimensional relational database that correlates compound concentration and the respective relative fluorescence intensity at a given wavelength set. A standard curve of rhodamine present on each plate as six-point concentration series, was used to compute a normalized fluorescence response, termed dye-equivalent concentration, for each compound at each concentration.\nNCGC Assay Protocol Summary: Buffer: 100 mM Tris buffer, pH 8.0 Dye standard plate: The wells in columns 1 through 4 of a Kalypsys polypropylene 1536-well compound plate were filled with standard solutions of fluorophore corresponding to the spectral region of interest. Solutions of rhodamine were placed in the following wells: E1, F1: 3 mM, E2, F2: 300 uM, E3, F3: 30 uM, E4, F4: zero (DMSO), G1, H1: 3 uM, G2, H2: […], G3, H3: 300 nM, G4, H4: zero (DMSO). Assay Steps: Six uL of buffer were dispensed to 1536-well Greiner black plates. Compounds and dye standards (23 nL) were transferred via Kalypsys PinTool. The plates were incubated for 15 min at room temperature, and then read on ViewLux (Perkin-Elmer) High-throughput CCD imager using 547 nm and 598 nm excitation and emission filter set. Keywords: NIH Roadmap, MLSCN, MLI, MLSMR, qHTS, NCGC, Rhodamine , Fluorescent Profiling.", "values": [
      {"smiles": "CN(C)c1cccc(C(=O)NCC2(N(C)C)CCCCC2)c1", "outcome": "inactive"},
      {"smiles": "C=C(C)C#C[C@@](O)(C(=O)OC1CCN(C)CC1)c1ccccc1", "outcome": "inactive"},
      {"smiles": "O=C(OC1CN2CCC1CC2)C(CO)(c1ccccc1)c1ccccc1", "note": "(stereo not given)", "outcome": "inactive"},
      {"smiles": "CN1CC[C@H](OC(=O)[C@](O)(c2ccccc2)C2CCCC2)C1", "outcome": "inactive"},
      {"smiles": "CN1CCC[C@H](OC(=O)[C@](O)(c2ccccc2)C2CCCC2)C1", "outcome": "inactive"}
    ]}
  ]
}
